Patent publication US20230099344A1, “COMPOUNDS AND METHODS FOR THE TARGETED DEGRADATION OF IRAK-4” (Arvinas Operations, Inc., priority 2021, published 2023)

By UniProt entry, the sequences of proteins in these tests, tags left out.
UniProt Q9NWZ3, whole entry: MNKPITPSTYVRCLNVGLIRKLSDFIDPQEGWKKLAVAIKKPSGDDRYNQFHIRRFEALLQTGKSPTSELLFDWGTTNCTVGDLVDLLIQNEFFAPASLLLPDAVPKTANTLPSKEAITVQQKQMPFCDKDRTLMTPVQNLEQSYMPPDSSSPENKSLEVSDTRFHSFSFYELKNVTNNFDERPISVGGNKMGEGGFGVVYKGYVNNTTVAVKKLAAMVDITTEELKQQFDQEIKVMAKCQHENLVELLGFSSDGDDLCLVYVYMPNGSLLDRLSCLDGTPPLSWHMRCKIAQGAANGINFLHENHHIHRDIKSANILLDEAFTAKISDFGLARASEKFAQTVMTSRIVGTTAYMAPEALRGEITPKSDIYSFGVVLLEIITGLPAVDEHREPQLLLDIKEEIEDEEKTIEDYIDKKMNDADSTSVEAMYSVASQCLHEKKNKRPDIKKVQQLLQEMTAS

Biological target: IRAK-4 (Homo sapiens, UniProt Q9NWZ3)
Experiment: IRAK-4 ELISA, PBMC degradation
Method: Reagents: Human IRAK-4 Matched Antibody Pair Kit (Abcam ab218182) and ELISA Accessory Pack (Abcam ab210905).
Cell Treatment and Lysis:
1. OCI-Ly10: 200,000 cells are seeded at 1×10^6/ml in 96-well U-bottom plates 200 ul per well, treated with compound the same day. Incubate overnight. 2. PBMC: 800,000 cells are seeded at 2×10^6/ml in 96-well U-bottom deep-well plates, 400 ul per well, treated with compound the same day. Incubate overnight.
Cell lysate is collected and analyzed by ELISA for IRAK-4 levels.

## CC(C)Oc1cc2c(cc1NC(=O)c1cnn3cccnc13)CN([C@H]1CC[C@H](OC3CN(c4ccc5c(c4)C(=O)N(C4CCC(=O)NC4=O)C5=O)C3)CC1)C2=O (stereo partly drawn)
read-out: PBMC DC50, treated overnight
  DC50: 1 to 5 nM
Treated overnight
  PBMC DC90: B (B represents a DC90 value ≥10.0 nM and <25.0 nM)
  PBMC Dmax: A (A represents a Dmax value ≥90)
